Test system: female mice
Experiment: skin sensitization test based on the LLNA (Local Lymph Node Assay), SI value by BrdU intake
Type: in vivo
Settings: test substance 50.0 W/v % in acetone/olive oil 4:1, 25 μL to both auricles once a day for 3 days, SI less than 3 = negative
Experimental: The individuals remaining after the categorization were excluded from the test.
The test substance was weighed in a measuring flask, and the volume of the test substance was adjusted to 1 mL with the medium. The thus-prepared test substance preparation was placed in a light-shielded airtight container (made of glass).
This treatment was performed once a day for three consecutive days.
The surrounding tissue of each auricular lymph node was removed, and the auricular lymph nodes from both the auricles were collectively weighed.
After returning the auricular lymph nodes to room temperature, the auricular lymph nodes were mashed with the gradual addition of physiological saline, and suspended therein. The thus-obtained suspension was filtrated and thereafter dispensed into the wells of a 96-well microplate, with 3 wells being used per individual. The thus-dispensed suspensions were measured for intake of BrdU by the ELISA method. […] A multiplate reader (FLUOSTAR OPTIMA, product of BMG LABTECH Inc.) was used to measure the absorbance of each well (OD: 370 nm to 492 nm, the intake of BrdU), and the average of the absorbance of the 3 wells for each individual was used as the measurement of BrdU for the individual.

Substance | SI values in LLNA test
ethyleneoxide-modified pentaerythritol tetraacrylate [a6] | 1.6
ethyleneoxide-modified trimethylolpropanetrimethacrylate [a3] | 1.0
ethylene oxide-modified bisphenol A diacrylate [a4] | 1.2

— US9120946B2, “Active energy ray curing type composition, container that accommodates composition, inkjet discharging device having container, and cured matter” (RICOH COMPANY, LTD., priority 2013, dated 2015)
